This data set in a line: Change in optical properties, UV absorption of esters and hydrolysis products. The format is physicochemical. The text has this:
The substrates representing the invention were (R/S)-acetic acid cyano-(6-methoxynaphthalen-2-yl)-methyl ester (the title compound of Synthesis Example 1 above) and (trans/cis)-3-(2,2-dichlorovinyl)-2,2-dimethylcyclopropanecarboxylic acid cyano-(6-methoxynaphthalen-2-yl)-methyl ester (the title compound of Synthesis Example 2 above).

Drawing on patent publication US6528675B1, “Cyanohydrin ethers and esters as high-sensitivity enzyme substrates” (The Regents of the University of California, priority 2001, dated 2003), this text covers λmax for two compounds.

For `CC(=O)Oc1ccc2ccccc2c1` [Compound 2-NA, 2-naphthacetate, reference compound], the λmax turned out to be 284 nm (tris-maleate pH 6.5, 10 μM); 283 nm (tris-maleate pH 7.5, 10 μM); 283 nm (tris-maleate pH 8.5, 10 μM).

With naphthol, the λmax (tris-maleate pH 6.5, 10 μM) was 285 nm.
